Test results as given in ChEMBL document CHEMBL3621161, “Conformationally restrained carbamoylcholine homologues. Synthesis, pharmacology at neuronal nicotinic acetylcholine receptors and biostructural considerations” (Eur J Med Chem, 2015).

Target: Neuronal acetylcholine receptor; alpha4/beta4 (Rattus norvegicus, UniProt P09483+P12392)
Assay: Displacement of [3H]epibatidine from rat neuronal acetylcholine receptor subunit alpha4beta4 expressed in HEK293 cell membranes incubated for 4 hrs by scintillation counting method

## CNC(=O)OCCC(C)N(C)C (stereo unspecified)
  pKi: 5
